Measured values taken from patent US9738637B2, “Histone demethylase inhibitors” (Quanticel Pharmaceuticals, Inc., priority 2013, dated 2017).

By UniProt entry, the sequences of proteins in these tests, tags left out. Residues count along the entry.
UniProt O75164, 1-350: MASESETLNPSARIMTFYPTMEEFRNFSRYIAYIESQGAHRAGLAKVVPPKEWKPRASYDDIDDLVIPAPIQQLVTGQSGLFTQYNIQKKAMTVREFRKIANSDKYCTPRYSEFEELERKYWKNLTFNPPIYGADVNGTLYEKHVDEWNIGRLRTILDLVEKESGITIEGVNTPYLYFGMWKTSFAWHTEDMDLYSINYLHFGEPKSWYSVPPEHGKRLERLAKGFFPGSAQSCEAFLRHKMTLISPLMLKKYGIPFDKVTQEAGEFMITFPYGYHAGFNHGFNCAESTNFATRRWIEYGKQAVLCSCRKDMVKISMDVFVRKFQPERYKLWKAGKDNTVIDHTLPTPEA
UniProt Q9H3R0, 2-372: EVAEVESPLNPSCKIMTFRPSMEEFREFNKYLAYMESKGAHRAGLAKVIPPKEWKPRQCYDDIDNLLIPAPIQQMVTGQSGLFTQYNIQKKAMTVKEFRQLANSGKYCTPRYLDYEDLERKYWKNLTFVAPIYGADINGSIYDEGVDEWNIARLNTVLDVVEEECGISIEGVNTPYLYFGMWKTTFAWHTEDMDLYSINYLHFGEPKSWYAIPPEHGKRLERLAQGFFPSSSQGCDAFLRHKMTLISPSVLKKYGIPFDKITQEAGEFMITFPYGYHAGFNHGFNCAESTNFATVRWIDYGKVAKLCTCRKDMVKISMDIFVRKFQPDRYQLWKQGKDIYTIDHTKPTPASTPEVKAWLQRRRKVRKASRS
UniProt P29375, 1-1090: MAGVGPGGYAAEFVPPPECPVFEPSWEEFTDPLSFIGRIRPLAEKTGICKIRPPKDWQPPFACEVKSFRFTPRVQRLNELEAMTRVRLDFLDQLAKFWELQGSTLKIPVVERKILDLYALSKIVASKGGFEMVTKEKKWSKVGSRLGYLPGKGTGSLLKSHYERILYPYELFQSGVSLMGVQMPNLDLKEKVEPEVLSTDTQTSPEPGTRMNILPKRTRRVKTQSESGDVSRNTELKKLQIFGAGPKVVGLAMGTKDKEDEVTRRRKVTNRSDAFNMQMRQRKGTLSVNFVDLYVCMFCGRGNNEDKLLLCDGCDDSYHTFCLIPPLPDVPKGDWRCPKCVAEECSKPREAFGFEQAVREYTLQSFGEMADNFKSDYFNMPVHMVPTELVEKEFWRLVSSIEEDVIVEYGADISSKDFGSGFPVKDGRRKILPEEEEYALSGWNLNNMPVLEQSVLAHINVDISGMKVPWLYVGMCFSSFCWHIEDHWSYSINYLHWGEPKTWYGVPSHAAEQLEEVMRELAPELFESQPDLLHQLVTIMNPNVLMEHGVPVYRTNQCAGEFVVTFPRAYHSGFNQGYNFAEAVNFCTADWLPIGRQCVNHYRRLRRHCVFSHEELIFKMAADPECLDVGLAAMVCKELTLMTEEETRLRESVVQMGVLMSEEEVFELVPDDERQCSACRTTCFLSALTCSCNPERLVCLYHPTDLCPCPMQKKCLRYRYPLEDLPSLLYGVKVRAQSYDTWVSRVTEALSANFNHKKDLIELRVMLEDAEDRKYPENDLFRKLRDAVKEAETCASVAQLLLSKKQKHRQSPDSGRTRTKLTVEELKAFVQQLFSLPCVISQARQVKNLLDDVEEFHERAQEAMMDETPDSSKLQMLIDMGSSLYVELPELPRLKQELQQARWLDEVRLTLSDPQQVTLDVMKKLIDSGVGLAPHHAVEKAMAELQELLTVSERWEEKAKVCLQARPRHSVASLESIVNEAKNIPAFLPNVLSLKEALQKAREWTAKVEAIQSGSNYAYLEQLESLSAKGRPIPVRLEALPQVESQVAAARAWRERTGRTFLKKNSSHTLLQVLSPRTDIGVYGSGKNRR
UniProt Q9UGL1, 2-751: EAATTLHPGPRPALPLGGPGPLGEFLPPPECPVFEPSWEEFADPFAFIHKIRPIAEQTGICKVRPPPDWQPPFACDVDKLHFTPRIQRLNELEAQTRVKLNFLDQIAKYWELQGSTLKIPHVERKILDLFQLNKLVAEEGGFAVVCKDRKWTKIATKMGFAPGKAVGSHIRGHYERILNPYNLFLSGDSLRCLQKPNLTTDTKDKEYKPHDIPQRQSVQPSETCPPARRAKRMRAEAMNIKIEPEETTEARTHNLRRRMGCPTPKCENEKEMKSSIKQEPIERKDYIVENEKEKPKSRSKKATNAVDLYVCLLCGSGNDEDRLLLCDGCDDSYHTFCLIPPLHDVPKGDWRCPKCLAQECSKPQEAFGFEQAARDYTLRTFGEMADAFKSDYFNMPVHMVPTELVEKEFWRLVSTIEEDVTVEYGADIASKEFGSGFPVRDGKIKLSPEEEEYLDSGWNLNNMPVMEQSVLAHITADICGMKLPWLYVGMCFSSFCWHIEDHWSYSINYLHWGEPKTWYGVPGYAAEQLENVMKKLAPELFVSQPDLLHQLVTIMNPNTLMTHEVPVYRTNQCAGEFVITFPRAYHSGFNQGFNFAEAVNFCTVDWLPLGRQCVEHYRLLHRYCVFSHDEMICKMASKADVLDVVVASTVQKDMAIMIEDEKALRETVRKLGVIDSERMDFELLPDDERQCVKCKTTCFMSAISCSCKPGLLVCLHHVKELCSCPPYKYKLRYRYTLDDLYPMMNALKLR

How the values were obtained:
Format in all cases: biochemical
[1] = biological target: JMJD2A (Homo sapiens (Human), UniProt O75164); experiment: JMJD2A in vitro enzyme inhibition assay (TR-FRET)
Method: (§1) This assay determines the ability of a test compound to inhibit Jarid1A, Jarid1B, JMJD2C, and JMJD2A demethylase activity.
(§2) Reaction product was determined quantitatively by TR-FRET after the addition of detection reagent Phycolink Streptavidin-allophycocyanin (Prozyme) and Europium-anti-di-methylated histone H3 lysine 9 (H3K9me2) antibody (PerkinElmer) in the presence of 5 mM EDTA in LANCE detection buffer (PerkinElmer) at a final concentration of 50 nM and 1 nM, respectively.
(§3) The assay reaction was initiated by the following: 2 μl of the mixture of 900 nM H3K9me3-biotin labeled peptide and 6 μM alpha-ketoglutaric acid with 2 μl of 11-point serial diluted inhibitor in 3% DMSO were added to each well of plate, followed by the addition of 2 μl of 6 nM JMJD2A to initiate the reaction. The reaction mixture was incubated at room temperature for 30 minutes, and terminated by the addition of 6 μl of 5 mM EDTA in LANCE detection buffer containing 100 nM Phycolink Streptavidin-allophycocyanin and 2 nM Europium-anti-H3K9me2 antibody.
(§4) The ability of the compounds disclosed herein to inhibit demethylase activity was quantified and the respective IC50 value was determined.

[2] = biological target: JMJD2C (Homo sapiens (Human), UniProt Q9H3R0); experiment: JMJD2C in vitro enzyme inhibition assay (TR-FRET); conditions: read-out: IC50 JNJD2C
Method: as §1, §2
as §3, with “well of the plate, followed” for “well of plate, followed”, “μl of 0.9 nM JMJD2C” for “μl of 6 nM JMJD2A”, “0.9 nM JMJD2C to initiate” for “6 nM JMJD2A to initiate”
as §4

[3] = biological target: Jarid1A (Homo sapiens (Human), UniProt P29375); experiment: Jarid1A in vitro enzyme inhibition assay (TR-FRET)
Method: as §1
The enzymatic assay of Jarid1A activity is based upon Time Resolved-Fluorescence Resonance Energy Transfer (TR-FRET) detection.
The assay reaction was initiated by the following: 2 μl of the mixture of 900 nM H3K4me3-biotin labeled peptide and 6 μM alpha-ketoglutaric acid with 2 μl of 11-point serial diluted inhibitor in 3% DMSO was added to each well of plate, followed by the addition of 2 μl of 3 nM Jarid1A to initiate the reaction. The reaction mixture was incubated at room temperature for 30 minutes, and terminated by the addition of 6 μl of 5 mM EDTA in LANCE detection buffer containing 50 nM Phycolink Streptavidin-allophycocyanin and 2 nM Europium-anti-H3K4me1-2 antibody.
as §4

[4] = biological target: Jarid1B (Homo sapiens (Human), UniProt Q9UGL1); experiment: Jarid1B in vitro enzyme inhibition assay (TR-FRET)
Method: as §1
The reaction mixture was incubated at room temperature for 30 minutes, and terminated by the addition of 6 μl of 5 mM EDTA in LANCE detection buffer containing 50 nM Phycolink Streptavidin-allophycocyanin and 2 nM Europium-anti-H3K4me1-2 antibody.
as §4

## COc1cc(Cc2cc3nccc(C(=O)O)c3[nH]2)ccc1Cl [Example 128, 2-(4-chloro-3-methoxybenzyl)-1H-pyrrolo[3,2-b]pyridine-7-carboxylic acid]
[1]
  IC50: 100 to 1000 nM
[2]
  IC50: < 100 nM
[3]
  IC50: 1000 to 10000 nM
[4]
  IC50: 1000 to 10000 nM
